## Apparent affinities of Ab-14 variants for a coronavirus HR2 peptide

Data: MIT Lincoln Laboratory AlphaSeq set, Engelhart et al. 2022, doi:10.1038/s41597-022-01779-4, as distributed in FLAb.

The target is the same throughout: PDVDLGDISGINAS, from the HR2 region of SARS-CoV-2 spike.

The variants keep the light chain, the linker and the frameworks of Ab-14 (scFv order VH, a (GGGGS)3 linker, VL).
VH: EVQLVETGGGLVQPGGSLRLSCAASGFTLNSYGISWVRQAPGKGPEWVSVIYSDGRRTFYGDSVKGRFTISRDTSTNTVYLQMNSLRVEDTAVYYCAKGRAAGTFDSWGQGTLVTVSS
VL: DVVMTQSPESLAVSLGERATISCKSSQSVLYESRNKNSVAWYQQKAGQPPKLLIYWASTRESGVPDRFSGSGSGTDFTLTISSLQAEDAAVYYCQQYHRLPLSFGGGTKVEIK

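Phage display of a naive human antibody library on the peptide gave the parent. The library (AAYL49) carries one to three amino acid substitutions per variant, with no insertions or deletions. AlphaSeq pools MATa yeast showing the antibodies with MATalpha yeast showing the peptide. Pairs that bind mate more often; barcode pairs of the diploids are counted by sequencing. A regression on co-assayed BCL2-family reference pairs converts the normalised counts of each replicate to an apparent Kd. Each pool was mated in three replicate cultures.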

Variants are written as CDR1, CDR2 and CDR3 of the heavy chain (limits as in the source). Parent: GFTLNSYGIS, VIYSDGRRTFYGDSVK, GRAAGTFDS. Kd is apparent (estimated from mating counts) and averaged on the log scale over replicates with a signal. Smaller is tighter. "nd" marks a missing value. The strain was present, yet no cells mated with the target were sequenced in any replicate, which points to weak or no binding.

{"CDR-H1": "RFTLNSYGIS", "CDR-H2": "VIYSDGRRTFYGDSVK", "CDR-H3": "GRAAGTFGA", "Kd (apparent)": "65 µM", "replicates with signal": "2 of 3"}
{"CDR-H1": "GFTLNSYGIS", "CDR-H2": "VIYSQGRRTFYTDSVK", "CDR-H3": "GRAAGTFDD", "Kd (apparent)": "nd", "replicates with signal": "0 of 3"}
{"CDR-H1": "GFTNNSYGIS", "CDR-H2": "VIYSDGRRTFYGDSVK", "CDR-H3": "GRAAGTDWS", "Kd (apparent)": "nd", "replicates with signal": "0 of 3"}
{"CDR-H1": "GFTLNSYPES", "CDR-H2": "VIPSDGRRTFYGDSVK", "CDR-H3": "GRAAGTFDS", "Kd (apparent)": "nd", "replicates with signal": "0 of 3"}
{"CDR-H1": "GFTLNSYGIC", "CDR-H2": "VHYSDGRRTFYGDSVK", "CDR-H3": "GRAAGTMDS", "Kd (apparent)": "49 µM", "replicates with signal": "1 of 3"}
{"CDR-H1": "GATLNSYGIS", "CDR-H2": "VIYSDGRRTAYGDSVK", "CDR-H3": "GRAAGTFDP", "Kd (apparent)": "200 nM", "replicates with signal": "1 of 3"}
{"CDR-H1": "GFTLNSYGIS", "CDR-H2": "VIYSDGRRFFYGDSVK", "CDR-H3": "GRYRGTFDS", "Kd (apparent)": "27 µM", "replicates with signal": "3 of 3"}
{"CDR-H1": "GFTLNSGGIS", "CDR-H2": "VIYSDGRRTFYGDGNK", "CDR-H3": "GRAAGTFDS", "Kd (apparent)": "nd", "replicates with signal": "0 of 3"}
{"CDR-H1": "GFTLNSYGIS", "CDR-H2": "VIYSSGGRTFYGDAVK", "CDR-H3": "GRAAGTFDS", "Kd (apparent)": "nd", "replicates with signal": "0 of 3"}
{"CDR-H1": "DTTLNSYGIS", "CDR-H2": "VIYSDGRRTFYGDSVK", "CDR-H3": "GRAAGTRDS", "Kd (apparent)": "130 µM", "replicates with signal": "2 of 3"}
{"CDR-H1": "GFTLNSYGIS", "CDR-H2": "VIYSDGRRTFYGDSVK", "CDR-H3": "GRHAGTFDL", "Kd (apparent)": "12 nM", "replicates with signal": "3 of 3"}
{"CDR-H1": "TFTLNEYGIS", "CDR-H2": "VIYKDGRRTFYGDSVK", "CDR-H3": "GRAAGTFDS", "Kd (apparent)": "nd", "replicates with signal": "0 of 3"}
{"CDR-H1": "GFTLNSYGIS", "CDR-H2": "VFYSWHRRTFYGDSVK", "CDR-H3": "GRAAGTFDS", "Kd (apparent)": "nd", "replicates with signal": "0 of 3"}
{"CDR-H1": "GFTLNSYGIS", "CDR-H2": "VIRIDGRRTFYGDSVK", "CDR-H3": "GRACGTFDS", "Kd (apparent)": "14 µM", "replicates with signal": "1 of 3"}
{"CDR-H1": "GFTLNSYGIS", "CDR-H2": "VFYSDSRRTFYGDSVK", "CDR-H3": "GRAAGTFDS", "Kd (apparent)": "240 µM", "replicates with signal": "1 of 3"}
{"CDR-H1": "GFTLNSYGIS", "CDR-H2": "VIYSDDRKTFYGDSVK", "CDR-H3": "ERAAGTFDS", "Kd (apparent)": "nd", "replicates with signal": "0 of 3"}
{"CDR-H1": "GFTLNSYGIS", "CDR-H2": "VIYSDGPRTFYGDSVK", "CDR-H3": "GRAAGARDS", "Kd (apparent)": "4.4 µM", "replicates with signal": "1 of 3"}
{"CDR-H1": "GFTLNSYGIS", "CDR-H2": "VIYSDGRRTFYMDSVK", "CDR-H3": "GRAAGQFDS", "Kd (apparent)": "nd", "replicates with signal": "0 of 3"}
{"CDR-H1": "PFTLNSYGIS", "CDR-H2": "VIYSDGVRTFYGDSVK", "CDR-H3": "GRAAGTFDS", "Kd (apparent)": "41 nM", "replicates with signal": "3 of 3"}

For reference, 2 entries of the list once more:

| CDR-H1 | CDR-H2 | CDR-H3 | Kd (apparent) | replicates with signal |
|---|---|---|---|---|
| GFTLNSYGIS | VIYSDGPRTFYGDSVK | GRAAGARDS | 4.4 µM | 1 of 3 |
| DTTLNSYGIS | VIYSDGRRTFYGDSVK | GRAAGTRDS | 130 µM | 2 of 3 |

Parent in this assay: reference entry 4.4 nM, copy in this library 13 µM (one replicate of three). As a blank, each scFv also met three strains without target: over library AAYL49, 15% of these pairings were detected, typically at 11 µM and seldom below 680 nM.